The test deals with mice with cough induced from aqueous ammonia. Nature of the test: Cough relieving effect of singly administered compounds in mice with cough induced from aqueous ammonia. More on the design: species or system male KM mice. The settings on record: mouse, in vivo. From the text:
II. Test on Cough Relieving Effect of Singly Administered Example Compounds of the Present Invention in Mice with Cough Induced from Aqueous Ammonia
1. Test animals: male KM mice (available from Guangdong Medical Laboratory Animal Center, Certificate No.: SCXK (Guangdong) 2008-0002, No. 0113738).
2. Test groups and treatment with drugs: Blank control group: treatment with 50% (v/v) PEG400 in physiological saline.
Treatment group with codeine phosphate as positive control—Codeine phosphate (Lott 20091212) is manufactured by Qinghai Pharmaceutical Co., Ltd. Before test, powdered codeine phosphate was added to 50% (v/v) PEG400 in physiological saline, to formulate a 0.47 μmol/ml solution.
Example compounds: the powdered example compounds were formulated into 50% (v/v) PEG400 in physiological saline respectively, to give a 7.44 μmol/ml solution or suspension.
Eligible male KM mice were randomly designated to a blank control group, and treatment groups with codeine phosphate as positive control and with example compounds, according to […].
The animals in each group were administered by intragastric gavage or intraperitoneal injection at a dosage of 0.2 ml/10 g of body weight, and placed in a cough inducing chamber 1 hr after administration. 1 ml of 25% concentrated aqueous ammonia was added to an atomizing cup and atomized for 15 s (at a rate of 0.15 ml/min). The coughs in 3 min were counted (during the typical cough, the mouth was opened and the head was lowered, which were accompanied by quivering of the neck and frequently a forward rushing).
Statistical analysis of data—Statistical analysis of all the data was conducted by SPSS 17.0 after the outliers were excluded by t test. Analysis of variance was performed by one-way ANOVA, multiple comparisons between the blank control group and each treatment group were carried out by Dunnett test, and the pairwise multiple comparisons between each treatment group and the codeine phosphate group were conducted by Duncan test. […]

These results are taken from patent US20160130245A1, “6,8-SUBSTITUTED NARINGENIN DERIVATIVE AND USE THEREOF” (SUN YAT-SEN UNIVERSITY, priority 2012, published 2016).

Consider `CCCc1c(O)cc(O)c2c1OC(c1ccc(O)cc1)CC2=O` (stereo not drawn) [Example 1, 8-n-propyl-2,3-dihydro-5,7-dihydroxy-2-(4-hydroxyphenyl)chromen-4-one], for which the Cough relieving rate came to 65.11% and the “cough relieving effect / therapeutic efficacy compared with reference substances (in words)” value was “higher than naringenin”. Moreover, for the setting “ip”, the Coughs worked out at 6.2 ± 3.5.
